The numbers were not newly measured in patent US20170007618A1, “SEROTONIN 2C RECEPTOR ANTAGONISTS TO PREVENT AND TREAT STRESS-RELATED TRAUMA DISORDERS” (Massachusetts Institute of Technology, priority 2015, published 2017), which cites them from elsewhere.

Sequences of proteins named here, by UniProt entry; tags and fusion partners are left off. Residues count along the entry.
UniProt P28335, 33-458: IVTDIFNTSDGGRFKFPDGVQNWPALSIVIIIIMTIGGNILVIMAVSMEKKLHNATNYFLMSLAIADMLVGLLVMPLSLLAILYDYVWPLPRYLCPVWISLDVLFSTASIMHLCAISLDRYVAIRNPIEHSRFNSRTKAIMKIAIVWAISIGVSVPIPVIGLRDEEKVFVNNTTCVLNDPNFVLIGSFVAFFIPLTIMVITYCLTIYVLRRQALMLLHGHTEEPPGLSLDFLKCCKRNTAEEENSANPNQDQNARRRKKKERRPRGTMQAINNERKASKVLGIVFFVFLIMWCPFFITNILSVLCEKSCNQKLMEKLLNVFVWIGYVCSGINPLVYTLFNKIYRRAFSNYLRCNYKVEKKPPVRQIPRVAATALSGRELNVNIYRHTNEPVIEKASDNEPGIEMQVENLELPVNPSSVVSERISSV

The series concerns the target cloned human 5-HT2C receptor (Homo sapiens, UniProt P28335).

As a reminder, the pKi is −log10 of the Ki, conventionally taken in molar units. For the molecule `Cn1ccc2cc3c(cc21)CCN3C(=O)Nc1cccnc1` [SB 206553, 5-methyl-1-[(3-pyridylcarba-moyl)-1,2,3,5-tetrahydropyrrolo(2,3-f)indole]], the pKi was 7.9.
